This is a selection; strong and weak results do not stand in their true shares. The source made the active and inactive calls. How the source made its calls: active means hit-call score of the fitted dose curve at least 0.9, where 1 is the maximum; inactive means score below 0.9.
Experiment: CCTE_Mundy_HCI_iCellGABA_NOG_NeuronCount: CCTE's Neurite Outgrowth Assay in iCellGABA cells for Neuron Count, Mundy Lab
Description: CCTE_Mundy_HCI_iCellGABA_NOG is a multiplexed, cell-based-readout assay that uses iCell GABANeurons from FUJIFILM Cellular Dynamics, Inc. (FCDI), human GABAergic enriched neurons derived from induced pluripotent stem (iPS) cells, with measurements taken at 50.33 hours after chemical dosing in a microplate: 96-well plate.CCTE_Mundy_HCI_iCellGABA_NOG_NeuronCount is one of four components of the CCTE_Mundy_HCI_iCellGABA_NOG assay. It measures cell viability related to number of neurons using High Content Imaging of fluorescently labelled markers.Data from the assay component CCTE_Mundy_HCI_iCellGABA_NOG_NeuronCount was analyzed at the endpoint CCTE_Mundy_HCI_iCellGABA_NOG_NeuronCount in the positive analysis fitting direction relative to DMSO as the negative control and baseline of activity. Using a type of viability reporter, loss-of-signal activity can be used to understand developmental effects.
Exposure starts 2 hours post-plating by adding 10 ul of the working solution to 90 ul of media in the wells for a 1/10 dilution. […] A Cellomics ArrayScan VTi HCS Reader is used for automated image acquisition and analysis of neurite outgrowth.
In the case of CC(C)OP(=S)(OC(C)C)SCCNS(=O)(=O)c1ccccc1, the AC50 is reported as active: 12.9 µM.

— PubChem BioAssay AID2284365 (EPA ToxCast)
